PubChem BioAssay AID750 (Sanford-Burnham Center for Chemical Genomics, 2007)
This is a selection; strong and weak results do not stand in their true shares. Active and inactive are the calls of the source.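 Rule for the calls: active = activation factor of at least 2 for MT1-MMP transcription at 10 µM; inactive = the rest.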

Test: MT1-MMP promoter reporter activation – cell-based, luciferase luminescence, primary screen (AID 750)
Conditions: HT1080 MT1-MMP promoter luciferase reporter, overnight, at 10 µM, active compounds read high

SMILES	activation factor
O=C(NCC1(N2CCOCC2)CCCCC1)c1cc2ccccc2o1	inactive: 1.2
O=C(OC1CN2CCC1CC2)C1c2ccccc2Oc2ccccc21 (stereo not given)	inactive: 1.1
COc1ccc(NC2CCN(CCc3ccccc3)CC2)c(OC)c1	inactive: 1.1
N#CC1(Nc2ccccc2)CCN(CCc2ccccc2)CC1	inactive: 1.2
O=C(NCC1(N2CCOCC2)CCCCC1)c1cc(=O)[nH]c2ccccc12	inactive: 1.2
N/C(=N\O)c1c(N)no[n+]1[O-]	inactive: 1
c1ccc(CN2CCC(Nc3ccccc3)CC2)cc1	inactive: 1
Fc1ccccc1NC1CCN(Cc2ccccc2)CC1	inactive: 1.1
CCOc1ncccc1C(=O)NCC1(N2CCOCC2)CCCCC1	inactive: 1.1
CCC(CO)(C(=O)OC1CN2CCC1CC2)c1ccccc1 (stereo not given)	inactive: 1
